These results are taken from US20080287445A1, “Prokineticin 2 receptor antagonists” (priority 2005, published 2008).

Sequences of proteins named here, by UniProt entry; tags and fusion partners are left off.
UniProt Q8TCW9, whole entry: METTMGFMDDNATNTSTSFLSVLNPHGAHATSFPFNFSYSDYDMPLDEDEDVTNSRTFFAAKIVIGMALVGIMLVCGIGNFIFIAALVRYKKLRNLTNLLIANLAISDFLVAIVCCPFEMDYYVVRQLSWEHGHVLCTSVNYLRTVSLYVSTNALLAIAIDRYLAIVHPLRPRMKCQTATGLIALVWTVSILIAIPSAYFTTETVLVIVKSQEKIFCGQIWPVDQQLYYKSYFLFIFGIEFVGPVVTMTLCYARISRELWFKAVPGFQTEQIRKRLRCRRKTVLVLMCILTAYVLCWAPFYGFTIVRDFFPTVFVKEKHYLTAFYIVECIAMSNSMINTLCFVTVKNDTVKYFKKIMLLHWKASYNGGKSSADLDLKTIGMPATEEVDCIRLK

For this assay, the target named is GPR73 (prokineticin 1 receptor) (Homo sapiens, UniProt Q8TCW9). Description: PK1 functional assay: Ca2+ mobilization screening for PK1 antagonists on the FLIPR. To be noted: HEK 293 GPR73 cells, multiple values = multiple testing. How it is done: At a time of 24 h prior to running the assay, in cell culture media (DMEM containing high Glucose and L-glutamine, 10% FBS, 1% Pen/Streptomycin, 1% Sodium Pyruvate, 20 mM HEPES, Zeocin 200 mg/L), 100 μL of 1.3*10^6/ml HEK 293 GPR73 (prokineticin 1 receptor) expressing cells were plated in a 96 well poly-d-lysine coated plate (Costar), and incubated at 37 C and 5% CO2. On the day in which the assay was run, the media was removed and 200 μL of 5× Calcium Plus Dye (Molecular Devices) which was previously resuspended with 200 mL of assay buffer [HBSS w/Ca^2+ and Mg^2+ w/o phenol red, 20 mM HEPES, 0.1% BSA, 10 mL probenecid (710 mg probenecid in 5 mL of 1N NaOH, to which was then added 5 mL HBSS containing 20 mM HEPES)] was added to each well of the 96-well plate. The plate was incubated at 37 C and 5% CO2 for 30 min in dark. The plate was removed and allowed to reach RT for 15 min in the dark. The assay was then run on the FLIPR. In Brief: base line read for 1 min, compound added (25 μL) and incubated for 4 min, 15 seconds, PK1 ligand preparation added (25 μL) for a final concentration of a previously determined EC50 and fluorescence was counted for 1 min, 45 seconds. Baseline is described as the amount of relative fluorescence read when buffer alone is added to cells. Baseline was subtracted from all wells. Percent of control was calculated as follows: […]
On the technique in general: Calcium flux is commonly read through the fluorescence of an indicator in the cells.

Molecules are shown by their SMILES.

As usually defined, the IC50 is the concentration that inhibits the measured activity by half. `Nc1ncccc1CNc1nc(=O)n(Cc2ccc(OC(F)F)cc2)c(=O)n1Cc1ccc(OC(F)F)cc1`: the “Ca^2+ Mobilization % Inh @ 10 μM” value (10 μM compound) was 62%. Also, the IC50 (read-out: Ca^2+ Mobilization IC50, PK1 ligand preparation at its EC50) worked out at 4.5 µM.
